Measured values from PMC3344910 (Bioorganic & medicinal chemistry, 2012).

Chains of the proteins cited; added tags and fusions are not shown.
UniProt P35372, whole entry: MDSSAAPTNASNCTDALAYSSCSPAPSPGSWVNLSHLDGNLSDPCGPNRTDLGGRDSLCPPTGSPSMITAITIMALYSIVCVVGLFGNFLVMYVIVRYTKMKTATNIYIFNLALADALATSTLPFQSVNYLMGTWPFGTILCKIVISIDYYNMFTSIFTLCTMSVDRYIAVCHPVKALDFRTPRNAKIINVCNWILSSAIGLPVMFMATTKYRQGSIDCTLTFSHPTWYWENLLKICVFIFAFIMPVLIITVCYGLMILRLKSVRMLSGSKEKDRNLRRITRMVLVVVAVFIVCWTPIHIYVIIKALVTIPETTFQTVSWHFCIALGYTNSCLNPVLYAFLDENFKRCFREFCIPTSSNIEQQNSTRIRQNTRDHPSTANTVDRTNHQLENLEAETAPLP
UniProt P41143, whole entry: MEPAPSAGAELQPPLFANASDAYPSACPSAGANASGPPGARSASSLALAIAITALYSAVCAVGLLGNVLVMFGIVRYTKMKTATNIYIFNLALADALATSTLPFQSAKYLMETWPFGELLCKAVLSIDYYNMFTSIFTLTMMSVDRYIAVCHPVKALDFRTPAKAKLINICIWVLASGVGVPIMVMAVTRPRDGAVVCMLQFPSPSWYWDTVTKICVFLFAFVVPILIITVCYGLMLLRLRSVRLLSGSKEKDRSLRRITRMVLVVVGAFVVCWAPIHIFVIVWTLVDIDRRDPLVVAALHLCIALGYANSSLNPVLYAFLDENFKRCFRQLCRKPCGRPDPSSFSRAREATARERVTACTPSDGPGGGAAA

How the values were obtained:
human MOP receptor = human MOP receptor (Homo sapiens, UniProt P35372); type: binding; settings: read-out: MOP Ki ± SD
human DOP receptor = human DOP receptor (Homo sapiens, UniProt P41143); type: binding; settings: read-out: DOP Ki ± SD

Structure (SMILES) | Ki (human MOP receptor) [µM] | Ki (human DOP receptor) [µM]
COC(=O)[C@@H]1C[C@H](OC(C)=O)C(=O)[C@H]2[C@@]1(C)CC[C@H]1C(=O)O[C@@H](c3ccoc3)C[C@]21C [Compound 3, (2R,4aR,6aR,7R,9S,10aS,10bR)-methyl 9-acetoxy-2-(furan-3-yl)-6a,10b-dimethyl-4,10-dioxododecahydro-1H-benzo[f]isochromene-7-carboxylate] | > 10 | > 10
COC(=O)[C@@H]1C[C@H](OC(C)=O)C(=O)[C@H]2[C@@]1(C)CC[C@H]1C(=O)O[C@H](c3ccoc3)C[C@]21C [Compound 1, (2S,4aR,6aR,7R,9S,10aS,10bR)-methyl 9-acetoxy-2-(furan-3-yl)-6a,10b-dimethyl-4,10-dioxo-dodecahydro-1H-benzo[f]iso-chromene-7-carboxylate, reference compound] | – | > 10
